What is called Ki is a measure of affinity in units of concentration, obtained from inhibition or displacement. Higher therefore signals lower affinity.

Sequences of proteins named here, by UniProt entry; tags and fusion partners are left off.
UniProt Q9HYN5, entry or part of it: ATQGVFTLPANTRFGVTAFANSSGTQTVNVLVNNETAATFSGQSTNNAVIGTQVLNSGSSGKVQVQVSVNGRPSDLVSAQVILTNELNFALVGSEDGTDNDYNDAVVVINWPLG

Each structure is given as a SMILES string.

This is an account of results in US20250295790A1, “LECTIN-TARGETING CONJUGATES” (Helmholtz-Zentrum für Infektionsforschung GmbH, priority 2021, published 2025).

In the experiment the target is LecB PAO1 (Pseudomonas aeruginosa, UniProt Q9HYN5). Kind of experiment: biochemical. The format is binding. The procedure: LecB (LecB PAO1 according to Hauck et al. and LecB PA14 according to Sommer et al.): A serial dilution of the test compounds was prepared in TBS/Ca, with 20% DMSO as cosolvent. […] Fluorescence was measured and analysed as for LecA. Bottom and top plateaus were fixed according to the control compound in each assay (1-fucose) and the data was re-analysed with these values fixed. A minimum of three independent measurements on three plates was performed for each inhibitor.

On to `CO[C@H]1O[C@H](CO)[C@@H](O)[C@H](O)[C@@H]1O` [Me-α-D-Man, methyl-α-D-mannoside, reference compound], for which the affinity corresponds to a Ki of 48.6 ± 6.9 µM.
